# Measurements reported in patent US9018162B2, “Methods for rapidly treating severe hypoglycemia” (Xeris Pharmaceuticals, Inc., priority 2013, dated 2015).
# Assay: Effect of pH on pramlintide solubility in DMSO (visual, A630)
# Assay type: physicochemical
# Procedure: Pramlintide acetate was dissolved in H2O at 2 mg/mL with either a 10 mM citrate buffer, pH 4 or 10 mM phosphate buffer, pH 7. These solutions were lyophilized to dryness ([…]) using a conservative cycle and reconstituted to various nominal concentrations in DMSO. Solubility was measured by visual inspection for clarity and turbidity via A630.
smiles,measurement,setting,value
CC[C@H](C)[C@H](NC(=O)[C@@H]1CCCN1C(=O)CNC(=O)[C@H](Cc1ccccc1)NC(=O)[C@H](CC(N)=O)NC(=O)[C@H](CC(N)=O)NC(=O)[C@H](CO)NC(=O)[C@H](CO)NC(=O)[C@H](Cc1c[nH]cn1)NC(=O)[C@@H](NC(=O)[C@H](CC(C)C)NC(=O)[C@H](Cc1ccccc1)NC(=O)[C@H](CC(N)=O)NC(=O)[C@H](C)NC(=O)[C@H](CC(C)C)NC(=O)[C@H](CCCNC(=N)N)NC(=O)[C@H](CCC(N)=O)NC(=O)[C@@H](NC(=O)[C@H](C)NC(=O)[C@@H]1CSSC[C@H](NC(=O)[C@@H](N)CCCCN)C(=O)N[C@@H](CC(N)=O)C(=O)N[C@@H]([C@@H](C)O)C(=O)N[C@@H](C)C(=O)N[C@@H]([C@@H](C)O)C(=O)N1)[C@@H](C)O)C(C)C)C(=O)N[C@@H](CC(C)C)C(=O)N1CCC[C@H]1C(=O)N1CCC[C@H]1C(=O)N[C@H](C(=O)N[C@@H](CC(N)=O)C(=O)N[C@H](C(=O)NCC(=O)N[C@@H](CO)C(=O)N[C@@H](CC(N)=O)C(=O)N[C@H](C(=O)N[C@@H](Cc1ccc(O)cc1)C(N)=O)[C@@H](C)O)C(C)C)[C@@H](C)O [pramlintide],solubility in DMSO,"pH memory of 4, low concentration",soluble
same,solubility in DMSO,pH memory of 7,At no concentration
